Measurements as given in patent US10730889B2, “Amido spirocyclic amide and sulfonamide derivatives” (Forma TM, LLC, priority 2012, dated 2020).

Chains of the proteins cited; added tags and fusions are not shown. Lines headed by an entry give the natural chain unless they say otherwise; changes in a name come on top.
UniProt P43490: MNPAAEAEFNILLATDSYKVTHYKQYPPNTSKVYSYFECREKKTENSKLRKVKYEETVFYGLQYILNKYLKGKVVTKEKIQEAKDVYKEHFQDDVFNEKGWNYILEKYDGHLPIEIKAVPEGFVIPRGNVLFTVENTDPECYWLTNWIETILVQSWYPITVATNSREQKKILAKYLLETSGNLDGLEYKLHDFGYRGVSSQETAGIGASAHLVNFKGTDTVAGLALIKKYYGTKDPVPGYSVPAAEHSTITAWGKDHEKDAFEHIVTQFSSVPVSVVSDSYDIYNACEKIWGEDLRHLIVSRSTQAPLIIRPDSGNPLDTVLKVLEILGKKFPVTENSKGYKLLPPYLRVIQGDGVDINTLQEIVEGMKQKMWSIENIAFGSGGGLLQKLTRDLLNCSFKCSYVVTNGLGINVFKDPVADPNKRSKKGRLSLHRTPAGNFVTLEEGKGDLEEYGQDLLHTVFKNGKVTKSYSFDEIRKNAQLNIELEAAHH

molecular target: NAMPT (Homo sapiens (Human), UniProt P43490); test: Biochemical inhibition assay (NAMPT enzymatic reaction, NMN quantified by mass spectrometry)

SMILES	IC50 [µM]
Cc1cc(C)n(CC(=O)N2CCC3(CC2)CC3CNC(=O)c2cc3ccncc3o2)n1 (stereo not shown) [Example 67, N-[[6-[2-(3,5-dimethylpyrazol-1-yl)acetyl]-6-azaspiro[2.5]octan-2-yl]methyl]furo[2,3-c]pyridine-2-carboxamidc]	0.21
CC(=O)N1CCCC1C(=O)N1CCC2(CC1)CC2CNC(=O)c1cc2ccncc2o1 (stereo not shown) [Example 68, N-[[6-(1-acetylpyrrolidine-2-carbonyl)-6-azaspiro[2.5]octan-2-yl]methyl]furo[2,3-c]pyridine-2-carboxamide]	0.812
CS(=O)(=O)c1ccccc1C(=O)N1CCC2(CC1)CC2CNC(=O)c1cc2ccncc2o1 (stereo not shown) [Example 69, N-[[6-(2-methylsulfonylbenzoyl)-6-azaspiro[2.5]octan-2-yl]methyl]furo[2,3-c]pyridine-2-carboxamide]	0.386
O=C(NCC1CC12CCN(C(=O)c1cccc(-n3cnnc3)c1)CC2)c1cc2ccncc2o1 (stereo not shown) [Example 70, N-[[6-[3-(1,2,4-triazol-4-yl)benzoyl]-6-azaspiro[2.5]octan-2-yl]methyl]furo[2,3-c]pyridine-2-carboxamide]	0.0681
CC(=O)Nc1ccc(C(=O)N2CCC3(CC2)CC3CNC(=O)c2cc3ccncc3o2)cc1 (stereo not shown) [Example 72, N-[[6-(4-acetamidobenzoyl)-6-azaspiro[2.5]octan-2-yl]methyl]furo[2,3-c]pyridine-2-carboxamide]	0.0338
CS(=O)(=O)N1CCCC(C(=O)N2CCC3(CC2)CC3CNC(=O)c2cc3ccncc3o2)C1 (stereo not shown) [Example 73, N-[[6-(1-methylsulfonylpiperidine-3-carbonyl)-6-azaspiro[2.5]octan-2-yl]methyl]furo[2,3-c]pyridine-2-carboxamide]	0.0574
CS(=O)(=O)N1CCC(C(=O)N2CCC3(CC2)CC3CNC(=O)c2cc3ccncc3o2)CC1 (stereo not shown) [Example 74, N-[[6-(1-methylsulfonylpiperidine-4-carbonyl)-6-azaspiro[2.5]octan-2-yl]methyl]furo[2,3-c]pyridine-2-carboxamide]	0.231
CC(C(=O)N1CCC2(CC1)CC2CNC(=O)c1cc2ccncc2o1)N1CCOCC1 (stereo not shown) [Example 75, N-[[6-(2-morpholinopropanoyl)-6-azaspiro[2.5]octan-2-yl]methyl]furo[2,3-c]pyridine-2-carboxamide]	0.109
CS(=O)(=O)N1CCCC1C(=O)N1CCC2(CC1)CC2CNC(=O)c1cc2ccncc2o1 (stereo not shown) [Example 76, N-[[6-(1-methylsulfonylpyrrolidine-2-carbonyl)-6-azaspiro[2.5]octan-2-yl]methyl]furo[2,3-c]pyridine-2-carboxamide]	0.214
O=C(NCC1CC12CCN(C(=O)CC1NC(=O)c3ccccc31)CC2)c1cc2ccncc2o1 (stereo not shown) [Example 77, N-[[6-[2-(3-oxoisoindolin-1-yl)acetyl]-6-azaspiro[2.5]octan-2-yl]methyl]furo[2,3-c]pyridine-2-carboxamide]	0.169
NC(=O)N1CCC(C(=O)N2CCC3(CC2)CC3CNC(=O)c2cc3ccncc3o2)CC1 (stereo not shown) [Example 78, N-[[6-(1-carbamoylpiperidme-4-carbonyl)-6-azaspiro[2.5]octan-2-y]methyl]furo(2,3-c]pyridine-2-carboxamide]	0.296
NC(=O)N1CCCC(C(=O)N2CCC3(CC2)CC3CNC(=O)c2cc3ccncc3o2)C1 (stereo not shown) [Example 79, N-[[6-(1-carbamoylpiperidine-3-carbonyl)-6-azaspiro[2.5]octan-2-yl]methyl]furo[2,3-c]pyridine-2-carboxamide]	0.755
O=C(NCC1CC12CCN(C(=O)CC1CCS(=O)(=O)C1)CC2)c1cc2ccncc2o1 (stereo not shown) [Example 80, N-[[6-[2-(1,1-dioxothiolan-3-yl)acetyl]-6-azaspiro[2.5]octan-2-yl]methyl]furo[2,3-c]pyridine-2-carboxamide]	0.244
O=C(NCC1CC12CCN(C(=O)Cn1ccc(=O)[nH]c1=O)CC2)c1cc2ccncc2o1 (stereo not shown) [Example 81, N-[[6-[2-(2,4-dioxopyrimidin-1-yl)acetyl]-6-azaspiro[2.5]octan-2-yl]methyl]furo[2,3-c]pyridine-2-carboxamide]	0.626
CC(=O)N1CCC(C(=O)N2CCC3(CC2)CC3CNC(=O)c2cc3ccncc3o2)CC1 (stereo not shown) [Example 82, N-[[6-(1-acetylpiperidine-4-carbonyl)-6-azaspiro[2.5]octan-2-yl]methyl]furo[2,3-c]pyridine-2-carboxamide]	0.398
O=C(NCC1CC12CCN(C(=O)c1ccc(Cn3cnnn3)cc1)CC2)c1cc2ccncc2o1 (stereo not shown) [Example 83, N-[[6-[4-(tetrazol-1-ylmethyl)benzoyl]-6-azaspiro[2.5]octan-2-yl]methyl]furo[2,3-c]pyridine-2-carboxamide]	0.211
CS(=O)(=O)Nc1ccc(C(=O)N2CCC3(CC2)CC3CNC(=O)c2cc3ccncc3o2)cc1 (stereo not shown) [Example 84, N-[[6-[4-(methanesulfonamido)benzoyl]-6-azaspiro[2.5]octan-2-yl]methyl]furo[2,3-c]pyridine-2-carboxamide]	0.0767
O=C(NCC1CC12CCN(C(=O)c1ccc(N3CCS(=O)(=O)CC3)cc1)CC2)c1cc2ccncc2o1 (stereo not shown) [Example 85, N-[[6-[4-(1,1-dioxo-1,4-thiazinan-4-yl)benzoyl]-6-azaspiro[2.5]octan-2-yl)methyl]furo[2,3-c]pyridine-2-carboxamide]	0.0388
CN1CCN(Cc2ccc(C(=O)N3CCC4(CC3)CC4CNC(=O)c3cc4ccncc4o3)cc2)CC1 (stereo not shown) [Example 86, N-[[6-[4-[(4-methylpiperazin-1-yl)methyl]benzoyl]-6-azaspiro[2.5]octan-2-yl]methyl]furo[2,3-c]pyridine-2-carboxamide]	0.03
CN1CCN(Cc2ccccc2C(=O)N2CCC3(CC2)CC3CNC(=O)c2cc3ccncc3o2)CC1 (stereo not shown) [Example 87, N-[[6-[2-[(4-methylpiperazin-1-yl)methyl]benzoyl]-6-azaspiro[2.5]octan-2-yl]methyl]furo[2,3-c]pyridine-2-carboxamide]	0.802
CN1CCN(Cc2cccc(C(=O)N3CCC4(CC3)CC4CNC(=O)c3cc4ccncc4o3)c2)CC1 (stereo not shown) [Example 88, N-[[6-[3-[(4-methylpiperazin-1-yl)methyl]benzoyl]-6-azaspiro[2.5]octan-2-yl]methyl]furo[2,3-c]pyridine-2-carboxamide]	0.022
CN1CCN(CCC(=O)N2CCC3(CC2)CC3CNC(=O)c2cc3ccncc3o2)CC1 (stereo not shown) [Example 89, N-[[6-[3-(4-methylpiperazin-1-yl)propanoyl]-6-azaspiro[2.5]octan-2-yl]methyl]furo[2,3-c]pyridine-2-carboxamide]	0.228
CC(C)N1CC(C(=O)N2CCC3(CC2)CC3CNC(=O)c2cc3ccncc3o2)CC1=O (stereo not shown) [Example 90, N-[[6-(1-isopropyl-5-oxo-pyrrolidine-3-carbonyl)-6-azaspiro[2.5]octan-2-yl)methyl]furo[2,3-c]pyridine-2-carboxamide]	0.149
O=C1CN(CC(=O)N2CCC3(CC2)CC3CNC(=O)c2cc3ccncc3o2)CCN1 (stereo not shown) [Example 91, N-[[6-[2-(3-oxopiperazin-1-yl)acetyl]-6-azaspiro[2.5]octan-2-yl]methyl]furo[2,3-c]pyridine-2-carboxamide]	0.474
CS(=O)(=O)c1cccc(C(=O)N2CCC3(CC2)CC3CNC(=O)c2cc3ccncc3o2)c1 (stereo not shown) [Example 92, N-[[6-(3-methylsulfonylbenzoyl)-6-azaspiro[2.5]octan-2-yl]methyl]furo[2,3-c]pyridine-2-carboxamide]	0.189
